Laboratory results published in US20230382863A1, “MEK INHIBITORS AND USES THEREOF” (Ikena Oncology, Inc., priority 2022, published 2023).

System: cancer cell lines
Experiment: In vitro MEK inhibitor drug combinations (Cell Titer Glo, Loewe synergy)
Format: cell-based
Procedure: Cell viability was determined by Cell Titer Glo assay. […] A normalized Loewe sum of synergy score of >10 was considered synergistic, <10, but >−10 additive, and <−10 antagonistic.

Compound: COc1cc2nc(C)nc(N[C@H](C)c3cc(N)cc(C(F)(F)F)c3)c2cc1O[C@H]1CCOC1 [BI3406]
- Loewe Synergy Score > 10: 4/6 cell lines
